Statin myotox sup: suppressors of statin myotoxicity in C2C12 myotubes, primary screen, cell-based, single point, plate reader; 330,000 tested, 0.78% active; rescue of ATP level, % at 7.49 µM; C2C12 myotubes + simvastatin, ATP luminescence, 48 h; scaled: DMSO 0, geranylgeraniol control 100;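 active = mean ATP rescue above about 67%, or every replicate alone reaching that limit, limit read from the data, passing the limit was not always enough; inconclusive = no clear call, values can overlap the other calls; inactive = mean under the limit and some replicate under it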;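 note: myotubes were challenged with 10 µM simvastatin during compound exposure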
miR-122 sensor: miR-122 Renilla sensor signal increase in Huh7, primary screen, miR-122 inhibitor project, cell-based, single point, plate reader | Huh7 miR-122 Renilla luciferase sensor, 48 h; neutral wells = 0, positive control = 100 | activation (reporter increase), % at 12.5 µM | 340,000 tested, 0.3% active;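 active = mean replicate activation score at least 90 and every replicate individually at or above 90; inconclusive = only one of the two criteria met; inactive = neither criterion met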;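 note: higher luciferase means less miR-122 activity so hits act as miR-122 inhibitors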
Cneo AK release: Cryptococcus neoformans cell lysis inducers, primary screen, AK release luminescence, single concentration | C. neoformans lysis, adenylate kinase release luminescence, 4 h; normalised: neutral wells 0, clomiphene wells 100 | lysis activity, % at 15 µM | 360,000 tested, 0.2% active;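 active = mean lysis activity across replicates of at least 80%, whatever share of replicates individually reach that level; inactive = mean lysis activity below 80%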
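Schedule: static 4 h at 37 °C with compound, 1 h detection; system: C. neoformans cells; benchmarks: Clomiphene as positive control; buffer or medium: fresh YPD medium; measure: luminescence rise reflecting yeast cell lysis; measured by: luminescent adenylate kinase detection reagent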
Yeast UUG start: alters start codon recognition fidelity in yeast; S. cerevisiae UUG-firefly luciferase reporter, luminescence/redox ratio; activity score, % at 18.7 µM; hit rate 0.13% among 350,000;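 active = replicate mean at a twofold rise or more, about +100% in these data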;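 also: firefly luciferase made from a UUG start codon reports start codon fidelity; reporter light over untreated wells divided by growth signal over untreated wells; some hits fall short of that in this replicate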
* marks the source's active call; other numbers are inactive results; ? = inconclusive; · = not tested or not shown; [ ] = dose if it differs, or a comment. Sampled rows, rich in hits. Any-hit rate of the full collection: about 1.2%.

Assay codes – A = Statin myotox sup; B = miR-122 sensor; C = Cneo AK release; D = Yeast UUG start
molecule: NC(=O)c1ccsc1NC(=O)C1CCCN1S(=O)(=O)c1ccc(Cl)cc1 (centres undefined)
  A: 20.2	B: -11.2	C: 5.6	D: -3.1

molecule: CC1CCCCN1S(=O)(=O)c1ccc(C(=O)Nc2sccc2C(N)=O)cc1 (centres undefined)
  A: 108.7*	B: -1.6	C: -2.5	D: -3.2

molecule: COC(=O)[C@H](CC(C)C)NS(=O)(=O)N[C@@H](CC(C)C)C(=O)OC
  A: 6.5	B: -8.0	C: 3.5	D: -3.6

molecule: COC(=O)[C@H](CC(C)C)NS(=O)(=O)c1ccccc1
  A: 79.6*	B: -2.3	C: 0.3	D: -21.7

molecule: COc1ccccc1S(=O)(=O)N[C@@H]1CC[C@@H](CCNC(=O)C2CCOCC2)O[C@@H]1CO
  A: 7.0	B: ·	C: -1.9	D: ·

molecule: C[C@H](CO)N1C[C@H](C)[C@H](CN(C)CC2CC2)Oc2ncc(-c3ccc(C#N)cc3)cc2C1=O
  A: 17.0	B: -0.2[16.7 µM]	C: ·	D: -10.0

molecule: Cc1csc2ncc(C(=O)Nc3cccc(C(F)(F)F)c3)c(=O)n12
  A: 106.8*	B: -1.7	C: -0.4	D: -7.2

molecule: C[C@@H]1CN([C@H](C)CO)C(=O)c2cc(NS(=O)(=O)c3ccc(F)cc3)ccc2O[C@H]1CN(C)C(=O)Nc1ccc(C(F)(F)F)cc1
  A: -16.4	B: 0.9[16.7 µM]	C: -3.4	D: -3.5

molecule: COc1cccc(NC(=O)N2C[C@H](O)COC[C@H]3O[C@H](CC(=O)NC4CCC4)CC[C@@H]32)c1
  A: 3.6	B: 9.3[16.7 µM]	C: -2.1	D: ·

molecule: C/C=C/c1cnc2c(c1)C(=O)N([C@@H](C)CO)C[C@@H](C)[C@H](CN(C)C(=O)C1CCOCC1)O2
  A: 7.0	B: -0.3[16.7 µM]	C: -4.6	D: ·

molecule: O=C(C[C@H]1CC[C@@H](NC(=O)c2cnccn2)[C@@H](CO)O1)NCc1ccccc1F
  A: -9.0	B: -7.2[16.7 µM]	C: 0.1	D: 10.6

molecule: O=C(c1ccccc1NS(=O)(=O)c1ccc2c(c1)OCCO2)N1CCOCC1
  A: 2.0	B: 3.0	C: 0.0	D: 0.2

molecule: O=C(NCc1ccco1)c1ccccc1NS(=O)(=O)c1ccc2c(c1)OCCO2
  A: 108.6*	B: -1.0	C: 1.4	D: -5.6

molecule: C[C@@H]1CN([C@@H](C)CO)S(=O)(=O)c2ccc(-c3cccc(F)c3)cc2O[C@H]1CN(C)CC1CC1
  A: -84.7	B: -3.8[16.7 µM]	C: 1.4	D: 2.8

molecule: COc1cccc(-c2cnc3c(c2)C(=O)N([C@H](C)CO)C[C@H](C)[C@@H](CN(C)C(C)=O)O3)c1
  A: 9.1	B: -7.9[16.7 µM]	C: 0.3	D: -2.8

molecule: CC(C)NC(=O)N1CC[C@@H]2[C@@H](CO)N(C)c3ccc(-c4cccc(F)c4)cc3[C@@H]21
  A: 3.1	B: ?	C: 92.4*	D: 53.6

molecule: COc1cccc(-c2ccc3c(c2)[C@H]2[C@H](CCN2C(=O)Cc2ccncc2)[C@H](CO)N3C)c1
  A: -6.5	B: 5.7[16.7 µM]	C: 90.9*	D: -15.7

molecule: CCC(=O)N1CC[C@@H]2[C@H]1c1cc(-c3cccc(OC)c3)ccc1N(C)[C@@H]2CO
  A: -3.1	B: -3.7[16.7 µM]	C: 1.2	D: -3.4

molecule: CC(C)NC(=O)N1CC[C@@H]2[C@H]1c1cc(-c3cccc(F)c3)ccc1N(C)[C@@H]2CO
  A: -1.4	B: -3.3[16.7 µM]	C: -14.0	D: -8.3

molecule: C/C=C/c1cnc2c(c1)C(=O)N([C@@H](C)CO)C[C@@H](C)[C@H](CN(C)Cc1ccncc1)O2
  A: -10.9	B: 4.0[16.7 µM]	C: 1.2	D: -1.8

Record cards, from the list above:
Results for `C/C=C/c1cnc2c(c1)C(=O)N([C@@H](C)CO)C[C@@H](C)[C@H](CN(C)Cc1ccncc1)O2` = Statin myotox sup: -10.9; miR-122 sensor: 4.0[16.7 µM]; Cneo AK release: 1.2; Yeast UUG start: -1.8
Results for `CCC(=O)N1CC[C@@H]2[C@H]1c1cc(-c3cccc(OC)c3)ccc1N(C)[C@@H]2CO` = Statin myotox sup: -3.1; miR-122 sensor: -3.7[16.7 µM]; Cneo AK release: 1.2; Yeast UUG start: -3.4

Continuation.
Assay codes – A = Statin myotox sup; B = miR-122 sensor; C = Cneo AK release; D = Yeast UUG start
molecule: O=C(CSc1nnc(CNc2ccc(F)cc2)n1Cc1ccccc1)N1CCOCC1
  A: 101.9*	B: -4.3	C: 11.2	D: -9.2

molecule: O=C1c2ccccc2C(=O)N1CCCN1C(=O)c2ccccc2C1=O
  A: -0.8	B: 8.2	C: -0.3	D: -10.0

molecule: O=C1c2ccccc2C(=O)N1CC1=CCS(=O)(=O)C1
  A: 112.5*	B: -6.2	C: 0.7	D: 3.6

molecule: CN(C)C(=O)C[C@@H]1C=C[C@@H](NC(=O)NC2CCCCC2)[C@H](CO)O1
  A: -4.2	B: 2.1[16.7 µM]	C: 0.1	D: -3.3

molecule: CO[C@@H]1CC[C@@H]2CCOc3c(C#N)cccc3C(=O)N(C)C[C@@H](c3ccccc3)CC(=O)N(C)C[C@@H]1O2
  A: -4.3	B: ·	C: 5.7	D: ·

molecule: C=CCSc1nnc(CSc2nc3sc4c(c3c(=O)[nH]2)CCCC4)n1-c1ccccc1
  A: 120.4*	B: 3.9	C: -2.0	D: -13.4

molecule: CCNC(=O)C[C@H]1CC[C@H]2[C@@H](COc3ccc(NC(=O)Nc4ccc(F)cc4)cc3C(=O)N2C)O1
  A: -0.9	B: -8.3[16.7 µM]	C: 2.5	D: -1.7

molecule: Cc1csc2nc(CNC(=O)c3cccc(C(F)(F)F)c3)cn12
  A: 108.7*	B: 13.4	C: ·	D: ·

molecule: O=C(NCc1cn2ccsc2n1)c1cccc(C(F)(F)F)c1
  A: -1.4	B: -5.9	C: 0.0	D: -25.3
